In article PMC10597491, “A mechanistically novel peptide agonist of the IL-7 receptor that addresses limitations of IL-7 cytokine therapy” (PLOS ONE, 2023):

Target: T1, IL-7R (Homo sapiens, UniProt P16871+P31785)
T1 construct: constructed to express full-length human IL-7Rα in TF-1 cells; TF-1 cells, which naturally express γc, but not IL-7Rα; expressed in transfected cells
T1 sequence (P16871 21-459): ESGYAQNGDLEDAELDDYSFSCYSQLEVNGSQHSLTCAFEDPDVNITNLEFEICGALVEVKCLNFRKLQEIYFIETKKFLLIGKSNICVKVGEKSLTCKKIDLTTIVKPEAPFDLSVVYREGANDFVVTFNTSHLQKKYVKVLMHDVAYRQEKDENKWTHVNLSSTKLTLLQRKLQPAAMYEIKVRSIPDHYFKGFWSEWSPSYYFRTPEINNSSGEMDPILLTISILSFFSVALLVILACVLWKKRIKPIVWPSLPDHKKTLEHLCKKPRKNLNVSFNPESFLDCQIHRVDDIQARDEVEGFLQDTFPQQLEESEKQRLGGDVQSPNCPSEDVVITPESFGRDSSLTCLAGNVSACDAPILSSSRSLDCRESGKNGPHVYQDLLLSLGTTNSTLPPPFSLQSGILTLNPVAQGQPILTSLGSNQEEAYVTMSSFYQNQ
T1 sequence (P31785 23-369): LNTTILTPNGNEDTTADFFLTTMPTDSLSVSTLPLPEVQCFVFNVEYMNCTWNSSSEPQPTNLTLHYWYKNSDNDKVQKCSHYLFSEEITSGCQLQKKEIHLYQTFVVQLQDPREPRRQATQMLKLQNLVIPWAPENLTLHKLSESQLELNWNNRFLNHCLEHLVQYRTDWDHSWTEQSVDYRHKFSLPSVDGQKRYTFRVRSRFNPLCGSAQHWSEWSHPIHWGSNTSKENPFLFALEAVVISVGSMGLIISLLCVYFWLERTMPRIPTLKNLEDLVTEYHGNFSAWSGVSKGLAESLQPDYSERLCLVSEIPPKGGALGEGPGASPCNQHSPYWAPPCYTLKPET
Assay: STAT5 phosphorylation in TF1-7Rα cells
Format: cell-based
Experimental: The synthetic peptide MDK1472 was designed to bind simultaneously to IL-7Rα and γc subunits and was tested for its ability to induce phosphorylation of STAT5, the primary IL-7R signaling pathway. An IL-7 responsive cell line, TF1-7Rα was constructed to express full-length human IL-7Rα in TF-1 cells, which naturally express γc, but not IL-7Rα.
Fig 3 IL-7Rα dependence of agonist activity induced by MDK1472 and MDK-703 in TF-1 and TF1-7Rα cells. Compound-induced STAT5 phosphorylation in (A) TF-1 (γc+) and (B) TF1-7Rα (IL-7Rαγc+) cells. (C) pSTAT5 accumulation in TF1-7Rα cells treated with IL-7 or MDK-703 in the presence of an IL-7 neutralizing antibody. Cells were pre-incubated for 15 min with 1 pM to 30 nM anti-IL-7, and test compounds were then added at concentrations equivalent to EC75 and incubated for an additional 30 min. Reactions were stopped and cell lysates prepared for pSTAT5 analysis.
Cells were deprived of growth factors by overnight incubation at 5×10^5 cells/mL in starvation medium (RPMI 1640 + 4.5 g/L glucose + 0.2% FBS + 2 mM L-glutamine + 1 mM NaPyr + 10 mM HEPES + 0.5x penicillin-streptomycin with no cytokine supplement) in T75 flasks. For assays, cells were plated in 96-well V-bottom plates at 2×10^5 cells/well. Three-fold serial dilutions in starvation medium of the test compounds or cytokine were added to the cells and incubated for 30 min at 37°C. […]

effect of IL-7 neutralizing antibody on pSTAT5 stimulation (TF1-7Rα cells, 15 min pre-incubation with 1 pM to 30 nM anti-IL-7, compound at EC75, 30 min): completely inhibits
Substance: IL-7: human IL-7 cytokine (Peprotech)
dependence of agonist activity on IL-7Rα expression (TF-1 parental (γc+) versus TF1-7Rα cells): completely dependent on IL-7Rα expression
